Key:
[1] = target: T1, Steroid hormone receptor ERR2 (Homo sapiens, UniProt O95718); assay: Binding affinity to ERRbeta (unknown origin) using fluorescein-conjugated coactivator PGC-1alpha incubated for 1 hr by TR-FRET assay
T1 sequence (O95718 whole entry): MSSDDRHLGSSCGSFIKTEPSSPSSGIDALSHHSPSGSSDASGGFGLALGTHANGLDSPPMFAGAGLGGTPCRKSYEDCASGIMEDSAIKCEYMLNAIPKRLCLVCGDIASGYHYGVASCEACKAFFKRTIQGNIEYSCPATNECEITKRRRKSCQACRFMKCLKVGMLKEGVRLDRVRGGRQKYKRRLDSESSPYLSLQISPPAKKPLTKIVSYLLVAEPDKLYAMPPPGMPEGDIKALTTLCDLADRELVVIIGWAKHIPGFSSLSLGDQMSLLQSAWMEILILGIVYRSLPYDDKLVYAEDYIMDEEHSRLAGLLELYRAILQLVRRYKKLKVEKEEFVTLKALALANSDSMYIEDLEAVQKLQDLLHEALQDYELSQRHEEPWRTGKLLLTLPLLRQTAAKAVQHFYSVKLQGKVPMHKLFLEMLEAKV

[2] = target: T2, Steroid hormone receptor ERR1 (Homo sapiens, UniProt P11474)
T2 sequence (P11474 whole entry): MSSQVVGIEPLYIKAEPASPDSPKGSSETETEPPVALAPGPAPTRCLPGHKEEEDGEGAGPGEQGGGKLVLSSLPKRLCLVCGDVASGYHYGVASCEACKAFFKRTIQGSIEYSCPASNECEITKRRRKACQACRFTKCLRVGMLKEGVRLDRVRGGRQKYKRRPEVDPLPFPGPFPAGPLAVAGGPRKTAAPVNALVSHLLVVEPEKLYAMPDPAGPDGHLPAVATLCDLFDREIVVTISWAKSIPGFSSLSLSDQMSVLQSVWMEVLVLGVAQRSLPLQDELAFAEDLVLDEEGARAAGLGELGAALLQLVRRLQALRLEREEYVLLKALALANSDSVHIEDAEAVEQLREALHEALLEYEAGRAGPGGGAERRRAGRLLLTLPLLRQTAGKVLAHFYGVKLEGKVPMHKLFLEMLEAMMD

SMILES: OCCC/C(=C(\c1ccc(Br)cc1)c1ccc(N2CCNCC2)cc1)c1ccccc1
- IC50 [1]: 0.98 µM
- IC50 [2]: 8.65 µM
